Laboratory results reported in patent EP0670826B1, “FATTY ACID DERIVATIVES AND PHARMACEUTICAL COMPOSITIONS CONTAINING THEM” (YISSUM RESEARCH DEVELOPMENT COMPANY OF THE HEBREW …, priority 1992, dated 1994).

Amino acid sequences for entries named in this document (tags omitted).
UniProt P20272, whole entry: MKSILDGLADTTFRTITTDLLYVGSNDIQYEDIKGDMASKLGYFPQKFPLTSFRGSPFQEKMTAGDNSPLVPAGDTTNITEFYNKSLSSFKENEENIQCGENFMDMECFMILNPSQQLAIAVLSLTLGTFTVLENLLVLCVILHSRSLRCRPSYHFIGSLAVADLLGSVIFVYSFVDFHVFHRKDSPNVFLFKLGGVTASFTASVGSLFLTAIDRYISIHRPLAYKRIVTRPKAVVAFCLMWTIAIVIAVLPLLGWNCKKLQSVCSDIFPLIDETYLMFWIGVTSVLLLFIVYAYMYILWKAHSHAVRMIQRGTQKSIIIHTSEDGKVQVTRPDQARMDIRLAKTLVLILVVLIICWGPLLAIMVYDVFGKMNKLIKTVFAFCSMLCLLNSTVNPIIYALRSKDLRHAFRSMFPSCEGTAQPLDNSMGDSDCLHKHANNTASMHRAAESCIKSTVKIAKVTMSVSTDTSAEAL

Molecular target: T1, cannabinoid receptor (Rattus norvegicus, UniProt P20272)
T1 construct: Synaptosomal membranes were prepared from rat whole brain-minus brainstem; from tissue; host or cells: rat whole brain minus brainstem, synaptosomal membranes (Sprague-Dawley males)
Test: centrifugation radioligand binding assay with [3H]HU-243 on synaptosomal membranes

Structure (SMILES): CCCCC/C=C\C/C=C\C/C=C\C/C=C\CCCC(=O)NCCO [Arachidonylethanolamide, 5,8,11,14-icosatetraenamide, (N,-2-hydroxyethyl)-(all-Z)]
- Ki: 0.052 µM
